The values below come from US20260345776A1, “SYNTHETIC INTERMEDIATES FOR UNIVERSAL CHIMERIC ANTIGEN RECEPTOR IMMUNE CELL THERAPIES” (priority 2022, published 2026).

Test [1] relates to EGFRt. As to the kind of experiment: Erbitux staining of EGFRt on CD4^+ DB5 CAR T-cells. The note with it: S1D11.
For test [2], the system named is EGFRt. As to the kind of experiment: Erbitux staining of EGFRt on CD8^+ DB5 CAR T-cells. The note with it: S1D11.

For the substance “Erbitux: biotinylated Erbitux antibody staining EGFRt”, the “Erbitux staining for EGFRt” value in the test with EGFRt [1] was > 95%; with EGFRt [2] it was > 94%.
